What was measured:
[1] = Adsorption onto glass container in liquid form; assay type: physicochemical
[2] = treated test animals; e.g. provoking marked hyperlactemia followed by hyperglycemia; cited from earlier work
[3] = compared to human amylin; cited from earlier work

CC[C@H](C)[C@H](NC(=O)[C@@H]1CCCN1C(=O)CNC(=O)[C@H](Cc1ccccc1)NC(=O)[C@H](CC(N)=O)NC(=O)[C@H](CC(N)=O)NC(=O)[C@H](CO)NC(=O)[C@H](CO)NC(=O)[C@H](Cc1c[nH]cn1)NC(=O)[C@@H](NC(=O)[C@H](CC(C)C)NC(=O)[C@H](Cc1ccccc1)NC(=O)[C@H](CC(N)=O)NC(=O)[C@H](C)NC(=O)[C@H](CC(C)C)NC(=O)[C@H](CCCNC(=N)N)NC(=O)[C@H](CCC(N)=O)NC(=O)[C@@H](NC(=O)[C@H](C)NC(=O)[C@@H]1CSSC[C@H](NC(=O)[C@@H](N)CCCCN)C(=O)N[C@@H](CC(N)=O)C(=O)N[C@@H]([C@@H](C)O)C(=O)N[C@@H](C)C(=O)N[C@@H]([C@@H](C)O)C(=O)N1)[C@@H](C)O)C(C)C)C(=O)N[C@@H](CC(C)C)C(=O)N1CCC[C@H]1C(=O)N1CCC[C@H]1C(=O)N[C@H](C(=O)N[C@@H](CC(N)=O)C(=O)N[C@H](C(=O)NCC(=O)N[C@@H](CO)C(=O)N[C@@H](CC(N)=O)C(=O)N[C@H](C(=O)N[C@@H](Cc1ccc(O)cc1)C(N)=O)[C@@H](C)O)C(C)C)[C@@H](C)O [pramlintide]
tendency to adsorb onto the glass in a glass container [1]: does not have a tendency to adsorb onto the glass | amylin activity in vivo [2]: show amylin activity in vivo | solubility and stability characteristics [3]: more desirable solubility and stability characteristics
